64 compounds from PubChem BioAssay AID492956 (The Scripps Research Institute Molecular Screening Center, 2010) can be followed below.

Molecules are shown by their SMILES. Only a part is listed here, and it is no random draw. Calls of active or inactive are those of the source.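 Rule for the calls: active = inhibition above the mean over all tested compounds plus 3 SD (cut at about 30% in these data); inactive = the rest.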

This test has as its target Platelet-activating factor acetylhydrolase 2, cytoplasmic (Homo sapiens) (UniProt Q99487). The experiment in a line: PAFAH2 enzyme inhibitors, primary screen, biochemical, fluorescence polarization, human (AID 492956).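 Note: inhibitors block probe labeling of enzyme so polarization drops; 0% = enzyme with DMSO and 100% = wells lacking PAFAH2 protein.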 The settings on record: recombinant PAFAH2, FP-rhodamine activity probe, at 3.39 µM, active compounds read high. (Polarisation of emitted light reports the rotation of a fluorescent probe.)
What is called inhibition is the change of the read-out against control, counted positive when it falls. Turning to `CCOP(=O)(Nc1cccc2ccccc12)OCC`, the inhibition is inactive: 2.59%.
`COc1cc(C2NCCC3(OCCO3)C2(C)C)cc(OC)c1OC` (centres undefined): the inhibition was inactive: -7.99%.
In the case of `Nc1cccc2c([As](=O)(O)O)cccc12` it was inactive: 21.4%; in that of `Cc1ccc(NCCc2c([N+](=O)[O-])cc([N+](=O)[O-])cc2[N+](=O)[O-])cc1`, inactive: -3.38%; in that of `CCCOP(=S)(Nc1nc(N)cc(=O)[nH]1)OCCC`, inactive: 2.46%.
For `O=[As](O)(c1cccc(O)c1)c1cccc(O)c1`, the inhibition was inactive: -7.18%.
In the case of `Cc1cccc(OCC(=O)OC2CN3CCC2CC3)c1` (centres undefined) it was inactive: -0.79%.
Regarding `O=C(OC1CN2CCC1CC2)c1ccc(Cl)cc1` (centres undefined), the inhibition is inactive: 5.99%.
In the case of `CS(=O)(=O)c1ccc(Cl)c(NC(=O)COC(=O)C(O)(c2ccccc2)c2ccccc2)c1` it was inactive: -0.76%.
In the case of `COc1cc(C(=O)NCC2(N3CCOCC3)CCCCC2)cc(Cl)c1OC(C)C` it was inactive: -1.48%; in that of `O=[As](O)(O)c1cccnc1`, inactive: -2.26%.
The value for `CCOP1(=S)c2c(C)nn(CCC#N)c2N=C(c2ccc(F)cc2)N1C` (centres undefined) was inactive: -0.66%; that for `CN(C(=O)Cc1ccccc1)[C@@H]1CC[C@]2(CCCO2)C[C@H]1N1CCCC1` was inactive: -26.8%; that for `N#CCCN(C(=O)COC(=O)C(O)(c1ccccc1)c1ccccc1)c1ccc(F)cc1` was inactive: -2.89%.
For `CN(C(=O)Cc1ccc(Cl)c(Cl)c1)[C@H]1CC[C@@]2(CCCO2)C[C@@H]1N1CCCC1`, the inhibition is inactive: 3.51%.
`CN(C)C(=O)c1cc([N+](=O)[O-])cc2c1-c1c(cc([N+](=O)[O-])cc1[N+](=O)[O-])C2=O`: the inhibition was inactive: 10.1%.
The value for `O=[N+]([O-])c1ccc2c(c1)nnn2O` was inactive: 6.61%.
Consider `NC(=O)Nc1ccc([As](=O)(O)O)cc1`, for which the inhibition is inactive: -3.91%.
As to `Nc1ccccc1[As](=O)(O)c1ccccc1`, the inhibition is inactive: -1.21%.
In the case of `O=C(O)COc1ccc([As](=O)(O)O)cc1[N+](=O)[O-]` it was inactive: 2.55%.
The value for `O=P(Nc1nccs1)(c1ccccc1)c1nc2ccccc2s1` (centres undefined) was inactive: 2.27%.
As for `O=P(Nc1nccs1)(Oc1ccccc1)Oc1ccccc1`, the inhibition is inactive: -8.11%.
In the case of `CCOP1(=S)c2c(C)nn(CCC#N)c2N=C(c2ccccc2F)N1C` (centres undefined) it was inactive: 1.81%; in that of `CS(=O)(=O)c1cc([N+](=O)[O-])c2no[n+]([O-])c2c1`, inactive: -0.4%.
The value for `Nc1cccc([As](=O)(O)c2ccccc2)c1` was inactive: -6.47%; that for `O=P1(Nc2ccc(Br)cn2)COc2ccccc2OC1` was inactive: 3.14%; that for `NS(=O)(=O)c1cccc(NC(=O)COC(=O)C(O)(c2ccccc2)c2ccccc2)c1` was inactive: -11.4%.
In the case of `O=[As](O)(c1cccs1)c1cccs1` it was inactive: 2.86%.
As for `Cc1ccc(OCC(=O)OC2CN3CCC2CC3)cc1` (centres undefined), the inhibition is inactive: 1.34%.
For `O=P1(Nc2ncccn2)COc2ccccc2OC1`, the inhibition is inactive: 2.6%.
As to `CN(C)C1(CNC(=O)c2ccc(S(C)(=O)=O)cc2)CCCCC1`, the inhibition is inactive: -3.04%.
On to `CCCC1OP(=O)(Nc2ccccc2)OCC1CC` (centres undefined), for which the inhibition is inactive: -0.95%.
The value for `O=C(/C=C/c1ccccc1)OC1CN2CCC1CC2` (centres undefined) was inactive: 6.14%; that for `CC1CCC(C(C)C)C(OP(=O)(Nc2ccccn2)c2ccccc2)C1` (centres undefined) was inactive: 3.57%; that for `Cc1ccc(C(=O)OC2CN3CCC2CC3)cc1` (centres undefined) was inactive: -0.14%.
On to `Cc1nn(-c2ccccc2)c2c1P(=O)(N1CCOCC1)N(C)C(c1ccccc1)=N2` (centres undefined), for which the inhibition was inactive: 2.15%.
In the case of `CC(C)/C=N\N=C(\N)N[N+](=O)[O-]` it was inactive: 7.84%; in that of `CN(C(=O)Cc1ccc(Cl)c(Cl)c1)[C@@H]1CCCC[C@H]1N1CCCC1`, inactive: 1.48%; in that of `CC1(CBr)Cn2c(nc3ccccc3c2=O)S1` (centres undefined), inactive: -5.93%.
Take `COc1ccccc1CNC(=O)COC(=O)C(O)(c1ccccc1)c1ccccc1`: the inhibition was inactive: -2.44%.
For `CC(C)(C)C(=O)NC(Sc1ncccn1)C(Cl)(Cl)Cl` (centres undefined), the inhibition was inactive: 1.79%.
Regarding `Clc1n[nH]nc1-c1nn[nH][15n]1`, the inhibition was inactive: -0.25%.
The value for `CCOP(=O)(NC(=NC(C)c1ccccc1)NC(C)c1ccccc1)OCC` (centres undefined) was inactive: 2.9%.
In the case of `O=P1(Nc2ccccn2)COc2ccccc2OC1` it was inactive: 1.69%; in that of `CCC1=CC2Cc3nc4ccc(Cl)cc4c(N)c3C(C1)C2` (centres undefined), inactive: 5.92%; in that of `CCOP(=O)(Nc1ccc(C)cn1)OCC`, inactive: -1.19%.
As to `CCC(C)N(CC(C)C)C(=S)SC(NC(C)=O)C(Cl)(Cl)Cl` (centres undefined), the inhibition is inactive: 4.09%.
The value for `O=C(OC1CN2CCC1CC2)c1cccc([N+](=O)[O-])c1` (centres undefined) was inactive: 2.65%.
In the case of `CCOC(=O)c1ccc(NC(=O)C(C)(CCl)SC)cc1` (centres undefined) it was inactive: 2.05%.
With `O=C(Nc1ccncc1[N+](=O)[O-])c1ccc([N+](=O)[O-])cc1[N+](=O)[O-]`, the inhibition is inactive: -6.34%.
In the case of `O=C(COc1ccccc1)OC1CN2CCC1CC2` (centres undefined) it was inactive: -0.43%; in that of `COP1(=S)c2c(C)nn(CCC#N)c2N=C(c2ccc(F)cc2)N1C` (centres undefined), inactive: 0.11%; in that of `O=P(Nc1ccccn1)(c1cccc2ccccc12)c1cccc2ccccc12`, inactive: 4.6%.
In the case of `Cc1cc(SC(NC=O)C(Cl)(Cl)Cl)ncn1` (centres undefined) it was inactive: -8.46%; in that of `O=[N+]([O-])c1ccc(Nc2ccc(Oc3ccc([N+](=O)[O-])cc3[N+](=O)[O-])cc2)c([N+](=O)[O-])c1`, inactive: -5.63%; in that of `CCOC(=O)Nc1cccc([As](=O)(O)O)c1`, inactive: 3.07%.
Regarding `Cc1cc(SC(NC(=O)c2ccccc2)C(Cl)(Cl)Cl)nc(C(C)C)n1` (centres undefined), the inhibition is inactive: 0.14%.
In the case of `CCCCOc1ccc(C(=O)NCC2(N3CCCCC3)CCCCC2)cc1OC` it was inactive: -4.99%; in that of `CCOC(=O)Nc1ccc([As](=O)(O)O)c(O)c1`, inactive: 2.51%; in that of `CC1CCNP(=O)(N(CCCl)CCCl)O1` (centres undefined), inactive: 4.59%.
The value for `O=[N+]([O-])c1cc([N+](=O)[O-])c(-c2ccn[nH]2)s1` was inactive: 1.12%; that for `O=C(OC1CN2CCC1CC2)c1cccc2[nH]cnc12` (centres undefined) was inactive: -9.24%.
The value for `CCN(CC)C(=S)SC(NC=O)C(Cl)(Cl)Cl` (centres undefined) was inactive: -2.15%; that for `ClCCSc1nnc(-c2cccnc2)o1` was inactive: -2.12%.
